{"source": "patent US12678471B2", "about": "(priority 2022, dated 2026)", "tested_on": "ACE2-293T cells"}
{"substance": "Aromoline", "values": [{"measurement": "Cell viability (%)", "setting": "10 μM, 24 hours, ACE2-293T cells, vehicle group = 100%, mean ± SD (n = 3)", "result": "97.10 ± 1.84", "unit": "%"}, {"measurement": "Cytotoxicity to ACE2-293T cells (result in words)", "setting": "dose of 10 μM", "result": "caused no harms to the ACE2-293T cells"}]}
